# From PubChem BioAssay
# uPA generation – blocks generation of uPA at the cell surface; 330,000 compounds, 0.31% hits; Potency, µM (top dose mostly 38.3 µM), for inactives: at the highest dose activity change, negative = inhibition, most hits filed as inhibitors; cell surface uPA generation assay, qHTS; active = well fitted inhibition curve with a large enough effect; inconclusive = small, poorly fitted or top-dose-only effect; inactive = no such curve, though single readings can be large or run the other way; tested in mouse RAW 264.7 cells; also: potency is read from the fitted curve at half-maximal effect; % is scaled to controls: 0 for no effect and ±100 for the full control effect; nearly all actives have a fitted effect of over 55% in size
# TDP1 inh – inhibitors of human tyrosyl-DNA phosphodiesterase TDP1 | Q9NUW8 | recombinant TDP1, AlphaScreen DNA substrate cleavage | Potency, µM (series often up to 130 µM), for the others: at the top dose activity change, negative = inhibition, most hits filed as inhibitors | 350,000 compounds, 0.28% hits; also: potency is read from the fitted curve at half-maximal effect; % is scaled to controls: 0 for no effect and ±100 for the full control effect; nearly all actives have a fitted effect of over 40% in size
#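 Signal: AlphaScreen proximity between streptavidin donor and anti-FITC acceptor beads on intact substrate. Reaction: Tdp1 1 nM, substrate 15 nM final, 5 min RT after 15 min compound preincubation.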
# DT40 TDP1 CPT – growth inhibition of DT40 Tdp1-/-;hTDP1 cells with camptothecin (screen for TDP1 inhibitors); chicken DT40 Tdp1-/-;hTDP1 cells + 20 nM CPT, ATP luminescence, 48 h; Potency, µM (series often up to 46.2 µM), without a hit: top-dose activity change, negative = growth inhibition, hits mostly inhibitors; 420,000 compounds, 12% hits; AID 686979; also: potency is read from the fitted curve at half-maximal effect; % is scaled to controls: 0 for no effect and ±100 for the full control effect; nearly all actives have a fitted effect of over 55% in size
#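 Chicken DT40 Tdp1-/- cells stably complemented with human TDP1 were seeded at 400 cells/well in medium containing 20 nM camptothecin, exposed to pin-transferred compounds, and grown at 37 °C for at least 48 hr. Viability was read as ATP luminescence.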
# miR-21 reporter – raises the signal of a miR-21 reporter; AID 2288; 340,000 tested, under 10 active; Potency, µM (doses to about 38.3 µM), inactives show at the top dose reporter change, positive = more light; HeLa miR-21 FLuc reporter, luciferase, 48 h; active = well fitted rising curve with a large enough effect; inconclusive = small, poorly fitted or top-dose-only effect; inactive = no such curve, though single readings can be large or run the other way;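 note: % of control where 0% means no effect; miR-21 action dims this reporter so a rising signal means less miR-21 action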
#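 HeLa miR-21-FLuc reporter line, endogenous miR-21; 2000 cells/well in DMEM/10% FBS; compound titration up to ~40uM final, 48 h, 37 degree Celsius; luciferase detection reagent, 15 min lysis, CCD luminescence.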
# DT40 TDP1 no CPT – qHTS for Inhibitors of human tyrosyl-DNA phosphodiesterase 1 (TDP1): qHTS in cells in absence of CPT; DT40 Tdp1-/- hTDP1 cells, no CPT, ATP luminescence, 48 h; Potency, µM (top dose mostly 46.2 µM), for the others: at the top dose activity change, negative = growth inhibition, actives largely listed as inhibitors; 420,000 compounds, 15% hits; AID 686978, 2013; also: potency is read from the fitted curve at half-maximal effect; % is scaled to controls: 0 for no effect and ±100 for the full control effect; nearly all actives have a fitted effect of over 55% in size
#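 Stably hTDP1-transfected Tdp1-null chicken DT40 cells were treated with library compounds minus camptothecin and grown for at least 48 hr at 37 °C, after which cellular ATP was quantified by luminescence.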
# * hit, by the source's call; u = inconclusive; x = no result given; [ ] = remark or other dose. Sampled rows, rich in hits. Any-hit rate of the full collection: about 16%. Unless noted, calls follow the shape of the dose curve; as a rule, active = well fitted curve in the direction sought with a large enough effect; inconclusive = small, poorly fitted or top-dose-only effect, or another doubt; inactive = no such curve, though single readings can be large; an effect the other way counts as inactive or inconclusive.
# Abbreviations – A = uPA generation; B = TDP1 inh; C = DT40 TDP1 CPT; D = miR-21 reporter; E = DT40 TDP1 no CPT
O=C(NCc1ccccc1)c1cccc(NC(=O)C2CCC2)c1
  A: 8%; B: x; C: 0%; D: x; E: -13%

CC(C)(C)OC(=O)N1CCCC(C(=O)Nc2cccc(C(=O)NCCCc3ccccc3)c2)C1 (configuration not stated)
  A: -15%; B: x; C: u; D: x; E: u

CC(C)(C)OC(=O)N1CCC(C(=O)Nc2cccc(C(=O)NCc3ccccc3)c2)CC1
  A: u; B: x; C: 23µM*; D: x; E: 21µM*

Cc1nn(CC(=O)NCCc2ccc(Cl)cc2)c(=O)c2cc3cc(F)ccc3n12
  A: x; B: 3%; C: -4%; D: -3%; E: -1%

O=C(NCCCN1CCCCC1)c1ccc2c(c1)NC(=O)c1ccccc1S2
  A: 10%; B: 7%; C: -25%; D: 5%; E: u

O=C1Nc2cc(C(=O)NCCCN3CCCC3)ccc2S/C1=C/c1ccccc1F
  A: -11%; B: 7%; C: 18µM*; D: 0%; E: u

O=C1Nc2cc(C(=O)NCCN3CCCCCC3)ccc2S/C1=C/c1ccccc1F
  A: x; B: x; C: 7.3µM*; D: x; E: 3.7µM*

Cn1c(CNc2nc(-c3ccccc3)cs2)nnc1SCC(=O)N1CCc2ccccc21
  A: 10%; B: 9%; C: u; D: -1%; E: u

CC1CCCC(C)N1CCCNC(=O)Cn1cc2c(n1)CCCC2 (configuration not stated)
  A: 13%; B: 1%; C: -12%; D: -2%; E: -9%

O=C(CN(C(=O)CCC(=O)Nc1nccs1)c1ccccc1F)NCc1ccc2c(c1)OCO2
  A: -2%; B: -1%; C: -6%; D: 8%; E: -23%

COc1cccc(OC)c1C(=O)Nc1cccc(NC(=O)c2cccs2)c1
  A: 14%; B: 4%; C: -4%; D: -1%; E: -30%

COc1ccccc1C(=O)Nc1ccc(NC(=O)c2cccs2)cc1
  A: x; B: 0%[12.3 µM]; C: u; D: -13%; E: u

COc1ccc(/C=C/C(=O)c2ccc(NC(=O)c3cccs3)cc2)cc1OC
  A: -11%; B: 3%; C: 18µM*; D: 10%; E: 23µM*

COc1cccc(C(=O)COc2ccc(NC(=O)c3cccs3)cc2)c1
  A: -7%; B: 0%; C: u; D: 0%; E: u

CCCCOc1cccc(C(=O)Nc2ccc(NC(=O)c3cccs3)cc2)c1
  A: -1%; B: 8%[0.0935 µM]; C: 15µM*; D: -7%; E: u

COc1ccc(C(=O)Nc2ccc(NC(=O)c3cccs3)cc2)cc1Cl
  A: -3%; B: 0%; C: 15µM*; D: -8%; E: 18µM*

COc1ccc(C(=O)Nc2cccc(NC(=O)c3cccs3)c2)cc1OC
  A: 4%; B: x; C: 15µM*; D: 5%; E: 13µM*

O=C(COC(=O)Cc1ccsc1)Nc1ccccc1Cl
  A: 2%; B: 0%; C: -3%; D: x; E: -3%

C/C(=N\N1CCN(Cc2ccccc2Cl)CC1)c1ccc([N+](=O)[O-])cc1
  A: -1%; B: 10%; C: u; D: -6%; E: u

COc1ccc(-c2cc(CN3C(=O)c4ccccc4C3=O)on2)cc1
  A: 4%; B: x; C: -6%; D: x; E: -9%

COc1ccc(OC)c(C2C(C(C)=O)=C(O)C(=O)N2CCC(=O)O)c1 (configuration not stated)
  A: -1%; B: -5%; C: 10%; D: -5%; E: 4%

COc1ccc(C(=O)Nc2ccc(NC(=O)c3cccs3)cc2)cc1OC
  A: x; B: 0%[12.3 µM]; C: u; D: -29%; E: 18µM*

COc1c(Cl)cc(Cl)cc1C(=O)Nc1ccc(NC(=O)c2cccs2)cc1
  A: -3%; B: 6%; C: u; D: 11%; E: 16µM*

O=C(Nc1ccc(NC(=O)c2ccc(Cl)cc2Cl)cc1)c1cccs1
  A: 5%; B: -11%; C: -3%; D: -12%; E: -28%

CCCCOc1cccc(C(=O)Nc2ccccc2N2CCCC2)c1
  A: -2%; B: x; C: -16%; D: -9%; E: u

CCCCOc1cccc(C(=O)Nc2cccc3ccc(C)nc23)c1
  A: x; B: 6%; C: u; D: -7%; E: 23µM*

COc1ccc(NC(=O)CCC(=O)c2cccs2)cc1Cl
  A: -9%; B: x; C: 4%; D: -11%; E: 1%

COc1ccc(NC(=O)Nc2cccs2)cc1Cl
  A: -29%; B: 8%; C: u; D: -40%; E: 23µM*

CSCC(=O)N1CCC(n2nccc2NC(=O)CCc2ccccc2)CC1
  A: -2%; B: 2%; C: -24%; D: 1%; E: 12%

# By substructure: the entries above with a tert-butyl group.
# Abbreviations – A = uPA generation; B = TDP1 inh; C = DT40 TDP1 CPT; D = miR-21 reporter; E = DT40 TDP1 no CPT
CC(C)(C)OC(=O)N1CCCC(C(=O)Nc2cccc(C(=O)NCCCc3ccccc3)c2)C1 (configuration not stated)
  A: -15%; B: x; C: u; D: x; E: u

CC(C)(C)OC(=O)N1CCC(C(=O)Nc2cccc(C(=O)NCc3ccccc3)c2)CC1
  A: u; B: x; C: 23µM*; D: x; E: 21µM*
